Laboratory results taken from patent US4774345A, “Amine-complexed zinc salts of organic diacids” (Engelhard Corporation, priority 1986, dated 1988).

Tests used:
[1] = Water solubility, modified ASTM-D1766; conditions: Table VI
[2] = Salt spray exposure, Example VI (ASTM B117-73; alkyd and latex primers); conditions: FIG. 3; alkyd formulation

| Substance | Solubility Description [1] | Solubility ([1]; modified ASTM-D1766) | Salt spray durability, in words [2] |
| --- | --- | --- | --- |
| Zinc Dodecanedioate Triethanolamine | PINS (practically insoluble (<.1 g/100 cc H2 O)) | .001 g/100 cc H2 O | – |
| zinc dodecanedioate triethanolamine | – | – | superior to "Zinc Yellow" (zinc chromate) in salt spray durability |
